# Ab-14 heavy chain CDR variants: yeast mating affinities

Target peptide (SARS-CoV-2 spike, HR2 region): PDVDLGDISGINAS

Parent: Ab-14, a human scFv built as VH, a (GGGGS)3 linker, VL. Only the CDRs of the heavy chain vary.
VH: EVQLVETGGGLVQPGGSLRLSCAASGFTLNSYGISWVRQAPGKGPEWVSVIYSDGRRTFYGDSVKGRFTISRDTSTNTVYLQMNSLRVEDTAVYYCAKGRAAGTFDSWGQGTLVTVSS
VL: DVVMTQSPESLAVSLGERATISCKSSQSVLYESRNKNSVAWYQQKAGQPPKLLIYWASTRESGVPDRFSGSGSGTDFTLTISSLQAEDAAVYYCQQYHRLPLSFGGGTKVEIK

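Phage display of a naive human antibody library on the peptide gave the parent. Variants in AAYL49 differ from the parent at up to three CDR positions; double and triple changes were sampled at random. AlphaSeq pools MATa yeast showing the antibodies with MATalpha yeast showing the peptide. After mating in shaken culture at 30 °C for 16 h, diploids were selected and their barcode pairs sequenced. A regression on co-assayed BCL2-family reference pairs converts the normalised counts of each replicate to an apparent Kd. The assay was run in three technical replicates.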

The parent's heavy chain CDRs are GFTLNSYGIS, VIYSDGRRTFYGDSVK, GRAAGTFDS; each variant's own CDRs replace them letter for letter.
Values are log10 of the apparent Kd in nM; lower means stronger binding.
Where no diploid with the target was found in that replicate, the entry reads "nd": below detection, most likely a poor binder, though not proof of it.
As a blank, each scFv also met three strains without target: over library AAYL49, 15% of these pairings were detected, typically at 4.06 and seldom below 2.83. The control count says in how many pairings with the empty strains this scFv gave a signal, with their mean in brackets.

CDR-H1	CDR-H2	CDR-H3	replicates, log10 nM	signal with controls
PFTLNSYGIS	VIYSDGRRTFYGDSSK	GRAAGTWDS	nd / nd / nd	1 of 9 (5.00)
GFTPNSYGIS	VIYSDGKRTFYGDSVK	GRFAGTFDS	1.45 / 1.98 / 1.57	2 of 9 (4.13)
GFTLYSYGIS	VIYSDGRRTFYGDSVK	GRAAMHFDS	nd / nd / nd	2 of 9 (4.26)
GFTESSYGIS	VIYSDGRRTFYGDSVK	GRAAGTFDH	nd / nd / nd	1 of 9 (4.17)
GFTLPSYGIS	VIYSDNRRTFYGDKVK	GRAAGTFDS	4.55 / nd / nd	3 of 9 (5.61)
GFTLNSYGIS	VIYSDGERTCYGDSVK	GRAAGTFDL	2.63 / 2.94 / 2.83	3 of 9 (5.26)
GFTLNSYGIH	VIYSDGRRTFEGDSVK	GRAAGTFDS	2.85 / 2.73 / 2.71	1 of 9 (4.38)
GFTLTSYIIS	VIYSDGRRTFYGDSVK	GRAAMTFDS	5.38 / nd / 5.71	1 of 9 (3.32)
GFTLNSKGFS	VIYSDGRRTFYGDSVK	TRAAGTFDS	3.53 / 4.84 / 5.87	4 of 9 (4.30)
GFTLNTYWIS	VIYSDGRRTFYNDSVK	GRAAGTFDS	nd / nd / nd	2 of 9 (3.60)
GFTLNSYGIS	VIYVDGRRTFYGDSVK	GRQAGTFIS	nd / nd / nd	1 of 9 (2.71)
GFTLNSYGIS	VAYSDGCRTFYGDSVK	GRAACTFDS	nd / nd / nd	1 of 9 (2.73)
GFTLNSYGIS	VIYSDGRRTFYGDSVT	GRAAGPFDR	2.59 / 2.37 / 2.73	3 of 9 (4.30)
GFTLNSYGIS	VIYSRGRRTFYGDSVK	GRAARTNDS	nd / nd / 4.75	2 of 9 (4.36)
GFTLNSYGIH	VIYSDGRRHFNGDSVK	GRAAGTFDS	nd / nd / nd	4 of 9 (4.09)
GFTLNSYGQS	VITSDGRRTFYGDSVK	GRAAGTFKS	4.97 / nd / nd	1 of 9 (2.97)
GFTLKSYGIS	VYYSDGRRTFYGDSVK	GRAAGTFMS	nd / nd / nd	0 of 9
GFWLNSYGIS	VGYSDGIRTFYGDSVK	GRAAGTFDS	nd / nd / nd	1 of 9 (4.17)
SFTLNSYGIS	VIYSDCRRTFYGDSVK	GRAAGTFDS	nd / nd / nd	0 of 9
GFTLNSYGIK	IIYSDGRRTFYGDSVF	GRAAGTFDS	nd / nd / nd	0 of 9
GFTLNSYGPS	VIYDDGRRTFYGDSVK	GRAAGTKDS	nd / 3.30 / nd	0 of 9
GFFLNSYGIS	VIYSDGRRTFYGDSVK	PRAAGTHDS	1.52 / 1.64 / 1.70	0 of 9
GFTLNSYGIS	LIYSDGRRFFYGLSVK	GRAAGTFDS	nd / nd / nd	0 of 9
GFTLNSYGIS	VIYNDGRRTFKGDSVR	GRAAGTFDS	nd / nd / nd	1 of 9 (3.10)
GFYLNGYGIS	VIYSDGRITFYGDSVK	GRAAGTFDS	nd / nd / nd	1 of 9 (3.71)
GFTLNSYGIS	VIYSYGRRTFYVDSVK	GRAAGTFDS	nd / nd / nd	0 of 9
GFTLNSYGIR	VIYSDGRRTFYGDSAK	GRAVGTFDS	nd / nd / nd	0 of 9
GFTLDSYGIS	VIYSDGMRTFYGDSVK	GRAAGTDDS	-0.02 / 0.32 / -0.09	1 of 9 (3.20)
GFTLNSYGIS	VIYLDGRRYFMGDSVK	GRAAGTFDS	nd / nd / nd	1 of 9 (2.52)
GFTLNNYGIS	VIYSDGRRTFYGDGVK	GRAAGTFDS	nd / nd / nd	1 of 9 (3.39)
GFPLNSYGIS	RIYSDGRRTFYGDSVK	GRAAGTFQS	nd / nd / nd	0 of 9
GITLNSYGIS	VIYSDGRRTFYGDSVW	GRAAGTFRS	2.83 / 3.66 / 1.95	2 of 9 (3.91)
QFTLNSYPIS	VIYSDGRRTFYGDSVK	GREAGTFDS	nd / 3.46 / nd	3 of 9 (4.24)
AFTLPSYGIS	VIYSDGRRHFYGDSVK	GRAAGTFDS	nd / nd / nd	1 of 9 (3.70)
GFTWNSYGIS	VIYSDGRRTFYGDSVK	GRNAGGFDS	nd / nd / 6.00	1 of 9 (4.09)
GFTLNSYGLS	VFYSDGRRTFYGDNVK	GRAAGTFDS	4.16 / nd / nd	2 of 9 (3.73)
GFTLNSHGIS	VIKSDGRRTFYGDSVK	GYAAGTFDS	nd / nd / nd	0 of 9
GFTLNDYGPS	VIYSDGRRTFYFDSVK	GRAAGTFDS	nd / 2.89 / nd	0 of 9
GFTLNSYGIS	VIYSFGRRTFYGDSVD	GRAPGTFDS	nd / nd / nd	3 of 9 (4.34)
GFTLNSYGIS	VIYSDGRRTFYGDSVK	GRAARTDDM	nd / nd / nd	0 of 9
GFTLNRYGIS	EIYSDGRRTFYGDSVK	GRYAGTFDS	nd / 4.15 / nd	0 of 9
GFRSNSYGIN	VIYSDGRRTFYGDSVK	GRAAGTFDS	nd / nd / nd	0 of 9
GFLLNSYGIS	VIYSDGRRTSYGDSVK	HRAAGTFDS	4.94 / nd / nd	5 of 9 (4.16)
GFTKNSYGIS	VIYSDGRRTFYGDSWK	TRAAGTFDS	nd / nd / nd	1 of 9 (4.05)
GFTLNSYGIS	VIYVDGQRTFYGDSVK	GRAAGTFDS	3.24 / 2.62 / 2.40	0 of 9
GFTLNSYYIS	VIYSQGRRTFYGDSVK	GRVAGTFDS	nd / nd / nd	1 of 9 (3.17)
GFTLNSYGIS	VIYSDGRRHFYNDSVI	GRAAGTFDS	4.39 / 4.18 / 4.01	8 of 9 (5.46)
GFTLNSYGIS	VIYSDGRRTRYPDSVY	GRAAGTFDS	nd / nd / nd	3 of 9 (4.85)
GFTLNSYGKS	VIYSDGERTFYGDSVK	GRAAGKFDS	nd / nd / nd	0 of 9
GFTLNVYGIS	VIYSDGRRTFYGDSQK	GVAAGTFDS	4.18 / 4.99 / nd	4 of 9 (3.76)
GFTLNSYGIS	VIYIDGRGTFYGDSVK	GRAEGTFDS	nd / nd / nd	1 of 9 (2.61)
GFQLNSYGCS	VIRSDGRRTFYGDSVK	GRAAGTFDS	nd / 3.87 / nd	2 of 9 (4.96)

From the list, the first 5 with no signal in any replicate:

CDR-H1	CDR-H2	CDR-H3	replicates, log10 nM	signal with controls
PFTLNSYGIS	VIYSDGRRTFYGDSSK	GRAAGTWDS	nd / nd / nd	1 of 9 (5.00)
GFTLYSYGIS	VIYSDGRRTFYGDSVK	GRAAMHFDS	nd / nd / nd	2 of 9 (4.26)
GFTESSYGIS	VIYSDGRRTFYGDSVK	GRAAGTFDH	nd / nd / nd	1 of 9 (4.17)
GFTLNTYWIS	VIYSDGRRTFYNDSVK	GRAAGTFDS	nd / nd / nd	2 of 9 (3.60)
GFTLNSYGIS	VIYVDGRRTFYGDSVK	GRQAGTFIS	nd / nd / nd	1 of 9 (2.71)

Values reported by Engelhart et al. 2022, doi:10.1038/s41597-022-01779-4 (FLAb copy).